According to PubChem BioAssay AID493014 (National Center for Advancing Translational Sciences (NCATS), 2011):
This is a selection; strong and weak results do not stand in their true shares. Results filed as inconclusive are left out. The source made the active and inactive calls. Calls follow the shape of the dose curve; as a rule, active = well fitted inhibition curve with a large enough effect in the signal ratio, with a control signal flat (not every such curve was filed as active); inconclusive = small, poorly fitted or top-dose-only effect, or effect the other way, or a change in a side signal; inactive = flat fitted curve, though single readings scatter; the % refers to the signal ratio.

Experiment: qHTS Assay to Find Inhibitors of Chronic Active B-Cell Receptor Signaling;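 also: plate controls were basal doxycycline-induced cells for no effect and cells given 10 µM MG132 for full effect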
Conditions: ABC-DLBCL IkBa-CBG/CBR reporter, luminescence ratio (green luciferase fused to IkBa over red control in TMD8 lymphoma cells), 4 h; at 46.1 µM (top of the series)
Description: NIH Molecular Libraries Probe Production Network [MLPCN] NIH Chemical Genomics Center [NCGC] MLPCN Grant: 1 R03 DA031086-01A1 PI Name: Dr. R. Eric Davis NCGC Assay Overview: Diffuse large B-cell lymphoma (DLBCL) is the most common category of non-Hodgkin lymphoma, with ~20,000 new cases per year in the United States. DLBCL should be regarded as a collection of different neoplasms. Microarray gene expression analysis has defined two principal types of DLBCL, named for their similarity to normal B cell stages or activation states: a germinal center B-cell (GCB) type, and an activated B-cell (ABC) type. In ABC-DLBCL, a constitutive high-level activity of the NF-kappaB family of transcription factors has been observed (1) and NF-kappaB target genes are more highly expressed in ABC primary tumors than in GCB tumors. Functional studies have shown a constitutive high-level activity of the IkappaB (inhibitor of kappa-B) kinase (IKK) complex. […] Further analysis of DLBCL primary tumors for NF-kappaB target gene expression imply that although CARD11 is required for constitutive IKK activity in all ABC-DLBCL lines, mutations in CARD11 may be the root cause of IKK activation only in lines or tumors with such mutations. In other words, CARD11 mutations may explain NF-kappaB activation in only 10% of ABC-DLBCL cases. […] This process has been termed 'chronic active BCR signaling' (CABS). The goal of this screen is to find small-molecule inhibitors of the CABS pathway found in ABC-DLBCL lines using a cell-based assay that measures IkappaBalpa stability, which has already been extensively validated in the OCI-Ly3 line (PubChem AID:445; REF: 4). […] The assay uses green (CBG68) and red (CBR) emitting beetle luciferases [Chroma-GloTM developed by Promega Corp.] where the green luciferase is fused to IkappaBalpha and the red luciferase is present in its native state. Both luciferase genes are stably present in the TMD8 human ABC DLBCL cell line, but their expression is under the control of tetracycline-inducible promoters. Following the addition of doxycycline to induce expression of the luciferases, the green luminescence in control cultures rises only slowly because the CBG fusion partner IkappaBalpha is targeted by IKK activity for rapid degradation. In contrast, green luminescence rises rapidly in the presence of proteasome inhibitors or IKK inhibitors. The rise in red luminescence of CBR is not affected by proteasome or IKK inhibitors, and serves as normalization for cell number and nonspecific effects. Compounds were screened as a concentration-titration series that ranged from 46 uM to 3 nM.
NCGC Assay Protocol Summary: Cells were seeded in 1536-well plates at 5000 cells/4uL in IMDM medium containing 0.5% FBS, w/o phenol red, 1% penicillin/streptomycin. Then, 23 nL of compounds or DMSO were delivered to each well using a pin tool. One uL 20ng/ml doxycycline was then dispensed into white solid 1536-well plates and the plates were incubated at 37C/5% C02 in a cell incubator for 4 hrs. Then 4 uL luminescent substrate mix (in-house prepared: 150 mM Tris-Cl, pH 7.6, 3 mM MgCl2, 1% Triton X-100, 5 mM DTT, 0.2 mM CoA, 0.15 mM ATP, 5 mM D-luciferin, final concentrations) was added to each well. The plate was incubated at r.t. for 10-15 min. The plates were measured on a ViewLux plate reader for green luminescence (540/20 nm filter) and red luminescence (618/8 nm filter). The green and red luminescent signals were corrected for red and green luminescence filter overlap using previously determined filter calibration constants (determined using the procedure outlined in the Promega Technical Manual; REF 4). The %Activity was determined from the ratio of corrected green/red luminescent values. MG132 were used as control. […] Red luminescent %Activity was normalized to the difference between red luminesence in basal cells (0%Activity) and zero luminescence (-100% Activity). […]

Structure (SMILES)	activity change, negative = inhibition
Cc1ccc(NCCc2c([N+](=O)[O-])cc([N+](=O)[O-])cc2[N+](=O)[O-])cc1	inactive: 10.7%
Nc1cccc2c([As](=O)(O)O)cccc12	inactive: -5.68%
CCCOP(=S)(Nc1nc(N)cc(=O)[nH]1)OCCC	inactive: 0.175%
O=C(OC1CN2CCC1CC2)c1ccc(Cl)cc1 (configuration not stated)	inactive: -14%
COc1cc(C(=O)NCC2(N3CCOCC3)CCCCC2)cc(Cl)c1OC(C)C	inactive: -0.502%
O=[As](O)(O)c1cccnc1	inactive: 3.48%
CS(=O)(=O)c1ccc(Cl)c(NC(=O)COC(=O)C(O)(c2ccccc2)c2ccccc2)c1	inactive: -2.73%
N#CCCN(C(=O)COC(=O)C(O)(c1ccccc1)c1ccccc1)c1ccc(F)cc1	inactive: 9.68%
CCOP1(=S)c2c(C)nn(CCC#N)c2N=C(c2ccc(F)cc2)N1C (configuration not stated)	inactive: 5.89%
CN(C(=O)Cc1ccccc1)[C@@H]1CC[C@]2(CCCO2)C[C@H]1N1CCCC1	inactive: -2.33%
O=[N+]([O-])c1ccc2c(c1)nnn2O	inactive: 0.489%
NC(=O)Nc1ccc([As](=O)(O)O)cc1	inactive: -2.96%
O=C(O)COc1ccc([As](=O)(O)O)cc1[N+](=O)[O-]	inactive: 0.634%
Nc1ccccc1[As](=O)(O)c1ccccc1	inactive: 6.45%
CCOP1(=S)c2c(C)nn(CCC#N)c2N=C(c2ccccc2F)N1C (configuration not stated)	inactive: -16.2%
O=P(Nc1nccs1)(Oc1ccccc1)Oc1ccccc1	inactive: -0.228%
CS(=O)(=O)c1cc([N+](=O)[O-])c2no[n+]([O-])c2c1	inactive: 3.56%
Nc1cccc([As](=O)(O)c2ccccc2)c1	inactive: 0.59%
NS(=O)(=O)c1cccc(NC(=O)COC(=O)C(O)(c2ccccc2)c2ccccc2)c1	inactive: 0.353%

Structure (SMILES)	activity change, negative = inhibition
O=P1(Nc2ccc(Br)cn2)COc2ccccc2OC1	inactive: 1.67%
Cc1ccc(OCC(=O)OC2CN3CCC2CC3)cc1 (configuration not stated)	inactive: 4.39%
O=[As](O)(c1cccs1)c1cccs1	inactive: -0.185%
CN(C)C1(CNC(=O)c2ccc(S(C)(=O)=O)cc2)CCCCC1	inactive: 5.79%
O=C(/C=C/c1ccccc1)OC1CN2CCC1CC2 (configuration not stated)	inactive: 3.95%
Cc1nn(-c2ccccc2)c2c1P(=O)(N1CCOCC1)N(C)C(c1ccccc1)=N2 (configuration not stated)	inactive: 0.344%
Cc1ccc(C(=O)OC2CN3CCC2CC3)cc1 (configuration not stated)	inactive: 6.37%
CC1CCC(C(C)C)C(OP(=O)(Nc2ccccn2)c2ccccc2)C1 (configuration not stated)	inactive: -10.4%
CC(C)/C=N\N=C(\N)N[N+](=O)[O-]	inactive: 0.0316%
O=[As](O)(c1ccccc1Br)c1ccccc1Br	inactive: 2.44%
COc1ccccc1CNC(=O)COC(=O)C(O)(c1ccccc1)c1ccccc1	inactive: 0.0489%
Clc1n[nH]nc1-c1nn[nH][15n]1	inactive: 2.45%
CC(C)(C)C(=O)NC(Sc1ncccn1)C(Cl)(Cl)Cl (configuration not stated)	inactive: -13.1%
CCC1=CC2Cc3nc4ccc(Cl)cc4c(N)c3C(C1)C2 (configuration not stated)	inactive: -3.87%
CCOP(=O)(NC(=NC(C)c1ccccc1)NC(C)c1ccccc1)OCC (configuration not stated)	inactive: -2.52%
CCC(C)N(CC(C)C)C(=S)SC(NC(C)=O)C(Cl)(Cl)Cl (configuration not stated)	inactive: -6.98%
O=C(OC1CN2CCC1CC2)c1cccc([N+](=O)[O-])c1 (configuration not stated)	inactive: 1.04%
CCOC(=O)c1ccc(NC(=O)C(C)(CCl)SC)cc1 (configuration not stated)	inactive: 5.23%
O=C(COc1ccccc1)OC1CN2CCC1CC2 (configuration not stated)	inactive: -0.723%

Structure (SMILES)	activity change, negative = inhibition
O=C(Nc1ccncc1[N+](=O)[O-])c1ccc([N+](=O)[O-])cc1[N+](=O)[O-]	inactive: 3.29%
COP1(=S)c2c(C)nn(CCC#N)c2N=C(c2ccc(F)cc2)N1C (configuration not stated)	inactive: 2.47%
Cc1cc(SC(NC=O)C(Cl)(Cl)Cl)ncn1 (configuration not stated)	inactive: -9.94%
O=P(Nc1ccccn1)(c1cccc2ccccc12)c1cccc2ccccc12	inactive: -1.35%
O=[N+]([O-])c1ccc(Nc2ccc(Oc3ccc([N+](=O)[O-])cc3[N+](=O)[O-])cc2)c([N+](=O)[O-])c1	inactive: 1.14%
CCOC(=O)Nc1cccc([As](=O)(O)O)c1	inactive: 0.264%
CCCCOc1ccc(C(=O)NCC2(N3CCCCC3)CCCCC2)cc1OC	inactive: 5.34%
Cc1cc(SC(NC(=O)c2ccccc2)C(Cl)(Cl)Cl)nc(C(C)C)n1 (configuration not stated)	inactive: 1.18%
CCOC(=O)Nc1ccc([As](=O)(O)O)c(O)c1	inactive: 0.284%
CCN(CC)C(=S)SC(NC=O)C(Cl)(Cl)Cl (configuration not stated)	inactive: 0.692%
CC(C)c1ccc(OP(=O)(Nc2ccccn2)Oc2ccccc2F)cc1 (configuration not stated)	inactive: -3.44%
Cc1ccc2nc3c(c(C)c2c1)CC(C(Cl)Cl)S3 (configuration not stated)	inactive: 29%
O=[As](O)(c1ccc(O)cc1)c1ccccc1O	inactive: 2.84%
C[As](=O)(O)c1cccc(C(=O)O)c1	inactive: -8.42%
COc1cc(C(=O)NCC2(N3CCOCC3)CCCCC2)ccc1OCC(C)C	inactive: -0.718%
COc1ccc(N/C(=N/P(=O)(N2CCOCC2)N2CCOCC2)N2CCOCC2)cc1	inactive: 2.56%
COc1ccc2nc(NP(=O)(c3ccccc3)c3ccccc3)sc2c1	inactive: 0.462%
O=C(OC1CN2CCC1CC2)C12CC3CC(CC(C3)C1)C2 (configuration not stated)	inactive: -4.36%
Cc1cc(=O)[nH]c(N[N+](=O)[O-])n1	inactive: 0.262%
